# Antibody variant affinities, Ab-95 light chain, assay 2

The measurements come from Engelhart et al. 2022 (doi:10.1038/s41597-022-01779-4) through the FLAb antibody collection.

Target: peptide PDVDLGDISGINAS, taken from heptad repeat 2 (HR2) of SARS-CoV-2 spike.

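The starting antibody came from a phage panning campaign against this peptide. Variants in AAYL52 differ from the parent at up to three CDR positions; double and triple changes were sampled at random. AlphaSeq pools MATa yeast showing the antibodies with MATalpha yeast showing the peptide. Pairs that bind mate more often; barcode pairs of the diploids are counted by sequencing. Each replicate has its own calibration line, from reference interactions of the BCL2 family. The assay was run in three technical replicates.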

Parent: Ab-95, a human scFv built as VH, three GGGGS repeats, VL. Only the CDRs of the light chain vary.
VH: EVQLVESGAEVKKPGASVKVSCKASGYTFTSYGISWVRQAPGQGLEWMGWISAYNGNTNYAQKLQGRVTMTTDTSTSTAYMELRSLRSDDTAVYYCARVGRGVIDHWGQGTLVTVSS
VL: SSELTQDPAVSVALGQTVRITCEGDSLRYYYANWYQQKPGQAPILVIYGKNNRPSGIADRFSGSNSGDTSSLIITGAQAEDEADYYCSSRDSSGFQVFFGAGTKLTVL

Each variant is given by its three light chain CDRs, as the data file delimits them; those of the parent are EGDSLRYYYAN, GKNNRPS, SSRDSSGFQVF.
The read-out is the apparent dissociation constant on a log10 scale (nM): the lower, the stronger.
"n.d." marks a missing value. The strain was present, yet no cells mated with the target were sequenced in that replicate, which points to weak or no binding.
Background: pairings of library AAYL52 with three empty control strains gave a value in 28% of cases (median 3.91, 5th percentile 2.90). Values in that range, when seen in few replicates, are hard to tell from nonspecific mating. For each scFv, signals with the empty controls are counted beside the result, with their mean in brackets.

{"CDR-L1": "EGLSLRYYYAN", "CDR-L2": "GKNNRPS", "CDR-L3": "SSRDSEGFFVF", "log10 Kd (nM) by replicate": "3.51 3.17 3.32", "signal with controls": "7/9 (4.62)"}
{"CDR-L1": "EGDSLRYFYAN", "CDR-L2": "GKNNRPS", "CDR-L3": "SRRDSNGFQVF", "log10 Kd (nM) by replicate": "3.65 4.70 n.d.", "signal with controls": "3/9 (4.01)"}
{"CDR-L1": "EGDYLRCYYAN", "CDR-L2": "GKNNRPS", "CDR-L3": "SKRDSSGFQVF", "log10 Kd (nM) by replicate": "n.d. 4.22 4.48", "signal with controls": "3/9 (4.94)"}
{"CDR-L1": "RGDSLAYYYAN", "CDR-L2": "GKNNVPS", "CDR-L3": "SSRDSSGFQVF", "log10 Kd (nM) by replicate": "1.87 1.84 1.55", "signal with controls": "4/9 (3.75)"}
{"CDR-L1": "EGDSLRYYYAS", "CDR-L2": "GKNNRNS", "CDR-L3": "GSRDSSGFQVF", "log10 Kd (nM) by replicate": "3.30 3.04 n.d.", "signal with controls": "1/9 (3.94)"}
{"CDR-L1": "EGDSLRWYYCN", "CDR-L2": "GKNNRPS", "CDR-L3": "SSRDSSWFQVF", "log10 Kd (nM) by replicate": "3.08 3.74 3.79", "signal with controls": "3/9 (3.43)"}
{"CDR-L1": "EPDSLRYYYAN", "CDR-L2": "GKNNRPS", "CDR-L3": "SSRDSSNFQVF", "log10 Kd (nM) by replicate": "3.60 3.88 n.d.", "signal with controls": "2/9 (3.82)"}
{"CDR-L1": "EGDSTRYYYAN", "CDR-L2": "KKNNRPS", "CDR-L3": "SSRDSSGFKVF", "log10 Kd (nM) by replicate": "2.98 n.d. 2.06", "signal with controls": "1/9 (3.56)"}
{"CDR-L1": "EGDSLRYYYTN", "CDR-L2": "GKNNRPS", "CDR-L3": "SSRSSSGFSVF", "log10 Kd (nM) by replicate": "1.94 1.76 1.99", "signal with controls": "3/9 (4.39)"}
{"CDR-L1": "EGDSLRYYYAN", "CDR-L2": "GKNDRPS", "CDR-L3": "SSRDSSGCQVF", "log10 Kd (nM) by replicate": "2.55 2.33 2.27", "signal with controls": "3/9 (3.98)"}
{"CDR-L1": "EGDGLRYYYAN", "CDR-L2": "GKNNRPS", "CDR-L3": "HSHDSSGFQVF", "log10 Kd (nM) by replicate": "n.d. 2.55 n.d.", "signal with controls": "0/9"}
{"CDR-L1": "EGDSSRYYYAI", "CDR-L2": "GKNNRPS", "CDR-L3": "SSRDSSGFQLF", "log10 Kd (nM) by replicate": "4.08 4.98 n.d.", "signal with controls": "2/9 (4.89)"}
{"CDR-L1": "EGDSLRYYADN", "CDR-L2": "GKNNRPR", "CDR-L3": "SSRDSSGFQVF", "log10 Kd (nM) by replicate": "n.d. 5.41 n.d.", "signal with controls": "1/9 (3.04)"}
{"CDR-L1": "EGDVLRYYYAK", "CDR-L2": "SKNNRPS", "CDR-L3": "SSRDSSGFQVF", "log10 Kd (nM) by replicate": "n.d. 4.12 n.d.", "signal with controls": "3/9 (3.90)"}
{"CDR-L1": "EGDSLRYYYAM", "CDR-L2": "GMNNRPS", "CDR-L3": "SVRDSSGFQVF", "log10 Kd (nM) by replicate": "5.57 n.d. n.d.", "signal with controls": "2/9 (4.28)"}
{"CDR-L1": "EGDSLYYYYAK", "CDR-L2": "GKNNRPS", "CDR-L3": "SSRDSSGFQTF", "log10 Kd (nM) by replicate": "n.d. n.d. n.d.", "signal with controls": "3/9 (4.06)"}
{"CDR-L1": "EGDSLRYYYAN", "CDR-L2": "GNNNRPD", "CDR-L3": "SSRDDSGFQVF", "log10 Kd (nM) by replicate": "3.33 2.43 2.46", "signal with controls": "3/9 (3.82)"}
{"CDR-L1": "EGDSLRYYYAN", "CDR-L2": "GKNNRPS", "CDR-L3": "SSRDSSGNQSF", "log10 Kd (nM) by replicate": "n.d. 4.09 n.d.", "signal with controls": "3/9 (3.86)"}
{"CDR-L1": "EGDSLRYYYAN", "CDR-L2": "GKNNRPS", "CDR-L3": "SHRDKSGFQVF", "log10 Kd (nM) by replicate": "3.32 n.d. 3.69", "signal with controls": "6/9 (3.93)"}
{"CDR-L1": "YGDSLRYYYAN", "CDR-L2": "GKNNRPS", "CDR-L3": "SHRDHSGFQVF", "log10 Kd (nM) by replicate": "n.d. n.d. n.d.", "signal with controls": "0/9"}
{"CDR-L1": "EGDSLRYYNAN", "CDR-L2": "GKNNRPS", "CDR-L3": "DPRDSSGFQVF", "log10 Kd (nM) by replicate": "4.51 5.72 n.d.", "signal with controls": "2/9 (3.82)"}
{"CDR-L1": "EGDSLRYIYAF", "CDR-L2": "GKNNRPS", "CDR-L3": "SVRDSSGFQVF", "log10 Kd (nM) by replicate": "n.d. 3.85 n.d.", "signal with controls": "0/9"}

The first 2 variants above that were never detected:

CDR-L1	CDR-L2	CDR-L3	log10 Kd (nM) by replicate	signal with controls
EGDSLYYYYAK	GKNNRPS	SSRDSSGFQTF	n.d. n.d. n.d.	3/9 (4.06)
YGDSLRYYYAN	GKNNRPS	SHRDHSGFQVF	n.d. n.d. n.d.	0/9

For reference, the parent read 2.31 as the reference entry and 2.25 as a member of this library.